This is an account of results in patent EP0520823A2, “Non-substrate peptide inhibitors of farnesyl protein transferase” (MERCK & CO. INC., priority 1991, dated 1992).

The test system of the test is partially pure bovine brain farnesyl-protein transferase. The test is described as follows: Tetrapeptides tested as farnesylation substrates ([3H]FPP, TLC, autoradiography). The format is biochemical. The conditions noted are these: peptide 200 µM, 0.5 µM [3H] FPP, 30 min. at 30°C. The method, then:
When a peptide was used as the acceptor substrate, there were two changes to the assay: (1) Ras protein was excluded and, (2) the reactions were stopped by the additon of one tenth volume of 0.5 M EDTA. […] After drying under vacuum, the plates were sprayed with […] exposed to X-ray film at -70°C. […] These Rf values reflect TLC conditions using ethylacetate:pyridine: acetic acid:water (10:5:1:3) as the eluent. […] CAIS (Rf=0.84) and CAIM (Rf=0.83)). Quenched reaction mixtures containing peptide, farnesyldiphosphate and farnesyl-protein transferase were separated by TLC followed by visualization of the radioactive species by autoradiography. […] Control peptides having a […] substitution were not substrates. […] Autoradiographic exposure time was overnight (15-20 hr).

`CC(C)C[C@H](NC(=O)[C@@H](NC(=O)[C@@H](N)CS)C(C)C)C(=O)N[C@@H](CO)C(=O)O` [CVLS, Cys-Val-Leu-Ser]: the Farnesylation substrate result is “+ (+ > 90% [^3H] farnesyl diphosphate converted to [^3H] farnesyl tetrapeptide)”.
